Measured values as given in ChEMBL document CHEMBL1137473, “Pyrazole-based cathepsin S inhibitors with improved cellular potency” (Bioorg Med Chem Lett, 2007).

Protein sequences, listed by entry. Tags and fused reporters are not part of them.
UniProt P25774, whole entry: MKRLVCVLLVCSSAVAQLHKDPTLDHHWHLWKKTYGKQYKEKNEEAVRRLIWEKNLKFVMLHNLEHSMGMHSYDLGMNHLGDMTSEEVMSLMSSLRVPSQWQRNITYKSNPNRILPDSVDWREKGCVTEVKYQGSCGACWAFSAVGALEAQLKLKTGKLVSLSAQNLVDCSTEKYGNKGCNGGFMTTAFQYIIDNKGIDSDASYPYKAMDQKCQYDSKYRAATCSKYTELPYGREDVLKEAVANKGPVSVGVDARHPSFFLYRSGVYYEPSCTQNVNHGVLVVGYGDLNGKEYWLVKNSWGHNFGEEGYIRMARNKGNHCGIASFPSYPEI

Assays:
Cathepsin S [1] = biological target: T1, Cathepsin S (Homo sapiens, UniProt P25774); experiment: Inhibition of human cathepsin S
Cathepsin S [2] = biological target: T1, Cathepsin S; experiment: Inhibition of cathepsin S in human JY cells by invariant chain degradation assay; format: cell-based

Row | SMILES | IC50 (Cathepsin S [1]) [nM] | IC50 (Cathepsin S [2]) [nM]
1 | COc1ccc2[nH]cc(C3CCN(CC(O)Cn4nc(-c5ccc(C(F)(F)F)cc5)c5c4CCN(S(C)(=O)=O)C5)CC3)c2c1 (configuration not stated) | 29 | 
2 | CCNC(=O)c1sc2cc(F)ccc2c1C1CCN(CCCn2nc(-c3ccc(C(F)(F)F)cc3)c3c2CCN(S(C)(=O)=O)C3)CC1 | 37 | 1200
3 | CC(=O)N1CCc2c(c(-c3ccc(C(F)(F)F)cc3)nn2CC(O)CN2CCC(c3c[nH]c4ccccc34)CC2)C1 (configuration not stated) | 72 | 
4 | CS(=O)(=O)N1CCc2c(c(-c3ccc(C(F)(F)F)cc3)nn2CC(O)CN2CCC(c3c[nH]c4cc(Cl)ccc34)CC2)C1 (configuration not stated) | 29 | 
5 | Cc1[nH]c2ccc(Cl)cc2c1C1CCN(CC(O)Cn2nc(-c3ccc(C(F)(F)F)cc3)c3c2CCN(S(C)(=O)=O)C3)CC1 (configuration not stated) | 37 | 
6 | CS(=O)(=O)N1CCc2c(c(-c3ccc(C(F)(F)F)cc3)nn2CC(O)CN2CCC(c3c[nH]c4cccnc34)CC2)C1 (configuration not stated) | 120 | 95
7 | CS(=O)(=O)N1CCc2c(c(-c3ccc(Br)cc3)nn2CC(O)CN2CCC(c3c[nH]c4ccc(Cl)cc34)CC2)C1 (configuration not stated) | 54 | 
8 | CS(=O)(=O)N1CCc2c(c(-c3ccc(C(F)(F)F)cc3)nn2CC(O)CN2CCC(c3c[nH]c4ncccc34)CC2)C1 (configuration not stated) | 27 | 860
9 | CS(=O)(=O)N1CCc2c(c(-c3ccc(C(F)(F)F)cc3)nn2CC(O)CN2CCC(c3c[nH]c4ccncc34)CC2)C1 (configuration not stated) | 58 | 25
10 | CS(=O)(=O)N1CCc2c(c(-c3ccc(C(F)(F)F)cc3)nn2CC(O)CN2CCC(c3c[nH]c4c(Cl)cccc34)CC2)C1 (configuration not stated) | 34 | 
11 | CS(=O)(=O)N1CCc2c(c(-c3ccc(C(F)(F)F)cc3)nn2CC(O)CN2CCC(c3c[nH]c4ccc(Cl)cc34)CC2)C1 (configuration not stated) | 44 | 
12 | Cc1ccc2[nH]cc(C3CCN(CC(O)Cn4nc(-c5ccc(C(F)(F)F)cc5)c5c4CCN(S(C)(=O)=O)C5)CC3)c2c1 (configuration not stated) | 58 | 
13 | CS(=O)(=O)N1CCc2c(c(-c3ccc(C(F)(F)F)cc3)nn2CC(O)CN2CCC(c3c[nH]c4cnccc34)CC2)C1 (configuration not stated) | 30 | 38
14 | CS(=O)(=O)N1CCc2c(c(-c3ccc(C(F)(F)F)cc3)nn2CC(O)CN2CCC(c3c[nH]c4ccc(C#N)cc34)CC2)C1 (configuration not stated) | 21 | 
15 | CS(=O)(=O)N1CCc2c(c(-c3ccc(C(F)(F)F)cc3)nn2CC(O)CN2CCC(c3c[nH]c4cc[n+]([O-])cc34)CC2)C1 (configuration not stated) | 200 | 240
16 | CS(=O)(=O)N1CCc2c(c(-c3ccc(C(F)(F)F)cc3)nn2CCCN2CCC(c3c(C(=O)NCCN4CCOCC4)sc4cc(F)ccc34)CC2)C1 | 39 | 340
17 | CS(=O)(=O)N1CCc2c(c(-c3ccc(C(F)(F)F)cc3)nn2CCCN2CCC(c3c(C(=O)NCCN)sc4cc(F)ccc34)CC2)C1 | 47 | 5500
18 | CCOC(=O)c1ccc2[nH]cc(C3CCN(CC(O)Cn4nc(-c5ccc(C(F)(F)F)cc5)c5c4CCN(S(C)(=O)=O)C5)CC3)c2c1 (configuration not stated) | 27 | 410
